# Apparent affinities of Ab-14 variants for a coronavirus HR2 peptide

Data: MIT Lincoln Laboratory AlphaSeq set, Li et al. 2023, doi:10.1038/s41467-023-39022-2, as distributed in FLAb.

All variants were tested on one target, the spike HR2 peptide PDVDLGDISGINAS (SARS-CoV-2).

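Designed CDR sequences, proposed from the first random library and measured here. Their group label is 14L_En_Gibbs (En: ensemble of fine-tuned language models; Gibbs: Gibbs sampling). In AlphaSeq, yeast of one mating type display the scFv and yeast of the other type display the target. The frequency of each diploid, read from paired DNA barcodes, reflects how well the two displayed proteins bind. Scores were corrected for input abundance and mapped to Kd with protein pairs of known affinity run in the same pool. There are six technical replicates.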

The variants keep the heavy chain, the linker and the frameworks of Ab-14 (scFv order VH, a (GGGGS)3 linker, VL).
VH: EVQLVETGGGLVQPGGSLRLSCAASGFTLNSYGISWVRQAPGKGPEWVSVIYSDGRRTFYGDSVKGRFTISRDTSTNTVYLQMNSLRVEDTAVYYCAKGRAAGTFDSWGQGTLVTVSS
VL: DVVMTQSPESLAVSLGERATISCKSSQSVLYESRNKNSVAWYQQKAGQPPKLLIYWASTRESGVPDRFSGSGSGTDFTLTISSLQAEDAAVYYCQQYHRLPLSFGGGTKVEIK

The parent's light chain CDRs are KSSQSVLYESRNKNSVA, WASTRES, QQYHRLPLS; each variant's own CDRs replace them letter for letter.
Affinities are written as log10 Kd with Kd in nM; a lower number is a better binder.
A pair that was not seen in that replicate is written "ND"; this usually means weak binding, but a binder can also be missed.
The parent sequence was in this pool as ten entries: three were never detected, three once, and four in most replicates, with averages from 0.34 to 2.37.
Three control strains display no target. For all light chain designs, 4% of the pairings with them gave a signal, with a median of 2.64 and one signal in twenty below 1.59, so weak values seen in few replicates may be background. For each scFv, signals with the empty controls are counted beside the result, with their mean in brackets.
The authors averaged sequences with at least three values out of six and counted those with two or fewer as poor binders.
The range of this assay differs from that of the first round, and the authors advise against merging the two.

| # | CDR-L1 | CDR-L2 | CDR-L3 | log10 Kd (nM) by replicate | empty controls |
|---|---|---|---|---|---|
| 1 | VMQMQQDRMQDAAQNIA | GVDMRET | QQYFRLPFL | 0.62 0.45 0.69 0.29 0.35 0.98 | 1 of 18 (2.35) |
| 2 | QFESLEEEGYAYSNNIA | GGEQRFS | QQYVKLPLV | 1.01 0.49 1.00 1.00 0.72 0.90 | 2 of 18 (2.18) |
| 3 | KLSNWYFDSYGNKESVA | ENEATSN | QQYSLLPLS | ND 2.06 1.25 ND ND 1.59 | 0 of 18 |
| 4 | MFSYNLHDMGRNKNSVA | EMNKVTT | QDYHRLPLA | 1.11 1.00 0.90 1.10 1.18 1.34 | 0 of 18 |
| 5 | NIQDNEGGLSSQWNSVA | STEERSD | QSYHRLPLS | 1.15 0.59 0.76 0.62 0.74 0.83 | 1 of 18 (2.76) |
| 6 | QFSNTNMQGNAMWHNVA | EATYAEE | QQYARLPLQ | 0.79 0.53 0.89 0.93 1.03 1.14 | 0 of 18 |
| 7 | KMAMALSPEFGTYHGVA | DADHRMH | QQYNRLPLS | 0.78 0.47 0.32 0.48 0.62 0.62 | 1 of 18 (3.59) |
| 8 | ALNAHRLVAIEAKNSIA | NAVMRED | QQYAQLPLM | 0.64 0.76 0.44 0.34 0.83 0.93 | 0 of 18 |
| 9 | KIYQLGKGSQKINNNIA | QTSIREL | QSYNRLPLS | 1.93 1.45 0.98 2.16 1.76 1.92 | 0 of 18 |
| 10 | NMKVGLNFEDIQHQAIA | EVEERES | QQYARLPLT | 1.55 1.75 1.75 1.48 1.41 1.38 | 1 of 18 (3.73) |
| 11 | MLTRFNLQNQGISNNIA | DTNQVQE | QQYFRLPFA | 0.21 -0.03 0.27 0.09 0.08 0.16 | 1 of 18 (2.47) |
| 12 | KITSHEWEGTADNSAMA | NADVSHD | QQYSRLPLF | 0.76 0.60 0.50 0.76 0.72 0.47 | 0 of 18 |
| 13 | HLGIQTQGEMVSTQAVA | QESTRAK | QQYFRLPLI | 0.61 0.61 0.24 0.50 0.43 0.41 | 3 of 18 (3.53) |
| 14 | HLSLRLSYGNMLQNAVA | EVQARMT | QQYARLPLL | ND ND ND ND ND 1.78 | 0 of 18 |
| 15 | KLNHLSFVHDREWNNVA | DLNVKAS | QQYDRLPLV | 0.47 0.39 0.32 0.37 0.15 0.51 | 2 of 18 (3.32) |
| 16 | HLMPSNLHYTEHLNSVA | EAEERQE | QHYARLPLM | -0.30 0.08 -0.10 -0.12 0.46 1.17 | 0 of 18 |
| 17 | NMTLQVRNGERNKYNIA | AEVKRVY | QQYQRLPLM | 1.46 2.31 2.21 ND 1.94 ND | 1 of 18 (3.29) |
| 18 | RVRNEMGKEMERGQSVA | ETEQRCM | QQYAQLPLI | 1.29 0.57 0.43 0.56 0.17 0.43 | 0 of 18 |
| 19 | KLGQESYNSTYAMDAVA | DQNTAYE | QHYSRLPLT | ND 2.59 ND ND 2.53 2.48 | 0 of 18 |
| 20 | MIQINQSNYDGMRSAIA | DTNLARM | QQYYHLPLM | 0.46 0.54 0.62 0.10 0.45 0.74 | 0 of 18 |
| 21 | NISINQADEYKMRNNIA | NTSWKAI | QQYFHLPLM | 1.27 1.23 1.61 1.59 1.19 2.46 | 2 of 18 (2.20) |
| 22 | HVMHEQLDYKNYENNIA | HESQRLY | QQYSHLPLS | 1.12 0.60 0.62 0.74 0.96 0.78 | 0 of 18 |
| 23 | GLSQDFYNERNQANQVA | DGNQLAN | QQYARLPLV | 0.49 0.62 0.68 0.40 0.33 0.57 | 1 of 18 (2.28) |
| 24 | KMREDFYHGQVEMSAIA | DGEHLNM | QQYSHLPLS | 0.58 0.62 0.70 0.53 0.53 0.70 | 2 of 18 (3.13) |
| 25 | KFMMSGEYQMHEQNNIA | QGNIKFK | QQYFRLPIS | 0.47 0.47 0.41 0.31 0.47 0.82 | 2 of 18 (2.29) |
| 26 | NMEGVEFEMAMHGNSVA | GVDLREA | QQYFRLPLH | 1.01 1.12 0.82 0.95 1.35 1.35 | 1 of 18 (2.73) |
| 27 | VLHNNCSDYDMYRNSIA | DAQHREA | QQYYRLPFT | 0.77 0.99 0.94 0.41 0.78 0.81 | 0 of 18 |
| 28 | KLEDSNSWHLRGTSAVA | QASTRAA | QQYQRLPLL | 0.14 0.06 0.03 0.33 0.04 0.21 | 1 of 18 (3.14) |
| 29 | SMMFDTSDNYHERNNIA | EQAAIMA | QQYSILPLS | ND 1.88 ND ND ND ND | 0 of 18 |
| 30 | ALEMDTLGQKPKQNNIA | NARVSTE | QQYYMLPLS | 0.69 0.80 1.52 0.75 0.75 0.58 | 0 of 18 |
| 31 | MINMEVGIEDMKWNSVA | SADVRAF | QQYGRLPFS | 0.97 1.23 1.07 0.94 1.71 1.12 | 0 of 18 |
| 32 | VVMQNFIDGMERQYSIA | ETSRVME | QQYFHLPLI | 1.60 1.21 1.21 1.38 1.36 1.40 | 1 of 18 (2.01) |
| 33 | NLNDSDMYAQQMTDNIA | QDTQRNE | QQYAKLPLS | 1.60 1.84 1.13 2.03 1.34 1.51 | 0 of 18 |
| 34 | MLTRFNLENQGVSNNIA | DTNNVQE | QQYFRLPFA | 0.54 0.40 0.34 0.52 0.83 0.42 | 0 of 18 |
| 35 | HFAKNLTSLANSKQNVA | NASTVMV | QYYNRLPLS | 1.76 ND 3.15 ND ND 2.06 | 0 of 18 |
| 36 | QIQGKLQHGGNQGANVA | QGVESKN | QQYYRLPLT | ND 1.16 1.56 1.47 0.86 3.38 | 0 of 18 |
| 37 | KVENYPENFRSAKDNIA | ADSATTS | QQYDRLPLA | ND ND 2.87 ND ND ND | 0 of 18 |
| 38 | NLSYHQFEPTGMVNSVA | QTSLRAH | QQYAHLPLC | 1.82 1.37 1.02 0.75 0.85 1.78 | 2 of 18 (1.95) |
| 39 | QVQYHPGESLRHASSIA | DVNIKVM | QQYSRLPLA | 0.00 0.22 -0.43 -0.35 -0.01 0.07 | 0 of 18 |
| 40 | QIDSFYQHGTDQKKAMA | DGSVRTQ | QQYSRLPLS | 0.26 -0.04 -0.18 -0.20 -0.11 -0.01 | 3 of 18 (2.82) |
| 41 | HISSMDMHDGGIMHSIA | DTKITER | QQYMRLPLS | 0.24 0.34 0.40 0.44 0.40 0.53 | 1 of 18 (2.90) |
| 42 | MISLCQNSYEDANNSIA | DRNERAM | QQYGRLPLV | 1.71 2.11 1.65 1.46 1.68 2.41 | 0 of 18 |
| 43 | GILSQMDGPTEYKENIA | NETERLR | QQYQRLPLT | 1.59 1.14 0.76 1.02 1.19 1.06 | 0 of 18 |

Picked from the list: the 6 lowest averages where every replicate gave a value.

{"CDR-L1": "QVQYHPGESLRHASSIA", "CDR-L2": "DVNIKVM", "CDR-L3": "QQYSRLPLA", "log10 Kd (nM) by replicate": "0.00 0.22 -0.43 -0.35 -0.01 0.07", "empty controls": "0 of 18"}
{"CDR-L1": "QIDSFYQHGTDQKKAMA", "CDR-L2": "DGSVRTQ", "CDR-L3": "QQYSRLPLS", "log10 Kd (nM) by replicate": "0.26 -0.04 -0.18 -0.20 -0.11 -0.01", "empty controls": "3 of 18 (2.82)"}
{"CDR-L1": "MLTRFNLQNQGISNNIA", "CDR-L2": "DTNQVQE", "CDR-L3": "QQYFRLPFA", "log10 Kd (nM) by replicate": "0.21 -0.03 0.27 0.09 0.08 0.16", "empty controls": "1 of 18 (2.47)"}
{"CDR-L1": "KLEDSNSWHLRGTSAVA", "CDR-L2": "QASTRAA", "CDR-L3": "QQYQRLPLL", "log10 Kd (nM) by replicate": "0.14 0.06 0.03 0.33 0.04 0.21", "empty controls": "1 of 18 (3.14)"}
{"CDR-L1": "HLMPSNLHYTEHLNSVA", "CDR-L2": "EAEERQE", "CDR-L3": "QHYARLPLM", "log10 Kd (nM) by replicate": "-0.30 0.08 -0.10 -0.12 0.46 1.17", "empty controls": "0 of 18"}
{"CDR-L1": "KLNHLSFVHDREWNNVA", "CDR-L2": "DLNVKAS", "CDR-L3": "QQYDRLPLV", "log10 Kd (nM) by replicate": "0.47 0.39 0.32 0.37 0.15 0.51", "empty controls": "2 of 18 (3.32)"}